How the values were obtained:
Homo sapiens [1] = species: Homo sapiens; test: Selectivity ratio of IC50 for recombinant C-terminal His10-tagged human uPA (M1 to L431 residues) to IC50 for recombinant C-terminal His10-tagged human Hepsin (R45 to […] residues) D161E/ R162K double mutant by manual fluorescence assay
Homo sapiens [2] = species: Homo sapiens; test: Selectivity ratio of IC50 for recombinant C-terminal His10-tagged human uPA (M1 to L431 residues) to IC50 for recombinant C-terminal His10-tagged human Hepsin (R45 to […] residues) D161E/ R162K double mutant by automated fluorescence assay

| SMILES | Ratio IC50 (Homo sapiens [1]) | Ratio IC50 (Homo sapiens [2]) |
| --- | --- | --- |
| Cc1ccc(S(=O)(=O)N[C@@H](C(=O)Nc2ccc(C(=N)N)cc2)C2CCCCC2)cc1 | > 142 | 133 |
| N=C(N)c1ccc(NC(=O)[C@H](NS(=O)(=O)c2ccc(F)cc2)C2CCCCC2)cc1 | 1450 | > 155 |
| Cc1ccc(S(=O)(=O)NC(C(=O)Nc2ccc(C(=N)N)cc2)c2ccccc2)cc1 (stereo unspecified) | 240 | – |
| Cc1ccc(S(=O)(=O)N[C@@H](C(=O)Nc2ccc(C(=N)N)cc2)c2ccccc2)cc1 | 6360 | – |

Reference: ChEMBL document CHEMBL4118144, “Design, Synthesis, and Testing of Potent, Selective Hepsin Inhibitors via Application of an Automated Closed-Loop Optimization Platform” (J Med Chem, 2018)
